The list shows a part of the results, in another mix than the full data. Some salts and complexes are drawn in separate pieces, as the source files them; their charges need not balance. Calls of active or inactive are those of the source.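 Rule for the calls: active = percent inhibition above 40 after rounding to a whole number; inactive = the rest.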

Amino acid sequences for entries named in this document (tags omitted).
UniProt P43116, whole entry: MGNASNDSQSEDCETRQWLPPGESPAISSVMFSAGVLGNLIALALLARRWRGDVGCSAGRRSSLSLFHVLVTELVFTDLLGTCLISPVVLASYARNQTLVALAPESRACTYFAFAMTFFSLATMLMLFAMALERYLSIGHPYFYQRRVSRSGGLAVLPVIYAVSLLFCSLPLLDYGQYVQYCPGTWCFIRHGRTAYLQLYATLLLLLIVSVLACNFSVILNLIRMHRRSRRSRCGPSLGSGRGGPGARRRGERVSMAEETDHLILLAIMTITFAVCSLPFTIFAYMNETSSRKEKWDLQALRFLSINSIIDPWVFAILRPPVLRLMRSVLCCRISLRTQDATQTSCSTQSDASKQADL

In the experiment the target is Prostaglandin E2 receptor EP2 subtype (Homo sapiens) (UniProt P43116). In words: human EP2 receptor antagonists, primary screen, TR-FRET cAMP, C6 glioma cells (AID 1422).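 Note: rat C6 glioma host cells with rolipram phosphodiesterase inhibitor present; the protocol text gives 20 µM as final concentration.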 Conditions: C6 glioma cells expressing human EP2, cAMP TR-FRET; at 25 µM; stronger effect = higher value; cells stimulated with saturating PGE2. For orientation: In TR-FRET formats the signal depends on donor and acceptor labels being close together.
Usually inhibition stands for the relative decrease from the control value, in per cent. For the compound `CN1CC[C@@H](OC(=O)[C@](O)(c2ccccc2)C2CCCC2)C1`, the inhibition is inactive: 13.1%.
The same measure for `CP(=O)(Nc1ccccc1F)Oc1ccccc1` (stereo not given): inactive: 7.78%; for `CC(C)c1ccc(OP(C)(=O)Nc2ccc(SC(F)(F)F)cc2)cc1` (stereo not given): inactive: 3.53%; for `O=C(OC1CN2CCC1CC2)c1ccc([N+](=O)[O-])cc1` (stereo not given): inactive: 6.81%.
With `O=C(OCCN1CCN(CCOCc2ccccc2)CC1)C(O)(c1ccccc1)c1ccccc1`, the inhibition is inactive: 10.9%.
For `COc1ccc2c(c1O)-c1c(O)c(OC)cc3c1[C@H](C2)[N+](C)(C)CC3.O=[N+]([O-])c1cc([N+](=O)[O-])c([O-])c([N+](=O)[O-])c1[O-]`, the inhibition was inactive: 16.7%.
In the case of `CCOC(=O)c1ccc(NP(C)(=O)Oc2ccc(F)cc2)cc1` (stereo not given), the inhibition is inactive: 10%.
With `COc1ccc(OP(C)(=O)Nc2ccc(SC(F)(F)F)cc2)cc1` (stereo not given), the inhibition was inactive: 6.78%.
The same measure for `CCN(CC)CCCOC(=O)C(O)(c1ccccc1)C1CCCCC1` (stereo not given): inactive: 11.5%.
The same measure for `CP(=O)(Nc1ccccc1)Oc1ccc(F)cc1` (stereo not given): inactive: 7.22%.
In the case of `CCCCCOc1ccc(NP(C)(=O)Oc2ccc(Cl)cc2Cl)cc1` (stereo not given), the inhibition is inactive: 5.56%.
`COc1ccc(OP(C)(=O)Nc2cccc(Br)c2)cc1` (stereo not given): the inhibition is inactive: 13.1%.
Take `CN(C)CCOC(=O)C(O)(c1ccccc1)C1CCCCC1` (stereo not given): the inhibition was inactive: 5.3%.
On to `COc1ccc(NP(C)(=O)Oc2ccccc2OC)cc1` (stereo not given), for which the inhibition was inactive: 5.21%.
On to `O=[N+]([O-])c1ccc(OP2(=O)COCCO2)cc1` (stereo not given), for which the inhibition is inactive: 3.1%.
Regarding `O=[N+]([O-])c1cc([N+](=O)[O-])c(NCC2CCS(=O)(=O)C2)c([N+](=O)[O-])c1` (stereo not given), the inhibition is inactive: 5.87%.
On to `Cc1cc(-c2cccc3ccccc23)c(C)cn1.O=[N+]([O-])c1cc([N+](=O)[O-])c(O)c([N+](=O)[O-])c1`, for which the inhibition is inactive: 6.94%.
Consider `CP(=O)(Nc1ccc(SC(F)(F)F)cc1)Oc1ccc(F)cc1` (stereo not given), for which the inhibition was inactive: 7.67%.
With `CCOP(C)(=S)SCC(=O)NC(C)(CC)C(=O)O` (stereo not given), the inhibition was inactive: 9.02%.
For `CP(=O)(Nc1ccc2c(c1)OCCO2)Oc1ccccc1` (stereo not given), the inhibition is inactive: 9.48%.
On to `Cc1ccccc1NP(C)(=O)Nc1ccccc1C`, for which the inhibition is inactive: 6.72%.
Consider `NNC(NN)NN.n1nc(-c2nn[nH]n2)n[nH]1`, for which the inhibition is inactive: 12.1%.
Take `CCN(CC)CC(O)COC(=O)C(O)(c1ccccc1)C1CCCCC1` (stereo not given): the inhibition is inactive: 6.64%.
Take `COc1ccc(OP(C)(=O)Nc2ccc(Br)cc2)cc1` (stereo not given): the inhibition is inactive: 4.69%.
Turning to `N#[O+].[C-]#N.[C-]#N.[C-]#N.[C-]#N.[C-]#N.[Fe+2].[Na+].[Na+]`, the inhibition was inactive: 11.3%.

Values taken from PubChem BioAssay AID1422 (Emory University Molecular Libraries Screening Center, 2008).
